For the experiment, the target named is T antigen (Simian virus 40, UniProt P03070). The experiment is described as follows: ATPase activity of purified T antigen. Format: biochemical, polyomavirus. The following applies: compound 10 μM, normalized to DMSO, mean of 3 experiments.

Chains of the proteins cited; added tags and fusions are not shown.
UniProt P03070, whole entry: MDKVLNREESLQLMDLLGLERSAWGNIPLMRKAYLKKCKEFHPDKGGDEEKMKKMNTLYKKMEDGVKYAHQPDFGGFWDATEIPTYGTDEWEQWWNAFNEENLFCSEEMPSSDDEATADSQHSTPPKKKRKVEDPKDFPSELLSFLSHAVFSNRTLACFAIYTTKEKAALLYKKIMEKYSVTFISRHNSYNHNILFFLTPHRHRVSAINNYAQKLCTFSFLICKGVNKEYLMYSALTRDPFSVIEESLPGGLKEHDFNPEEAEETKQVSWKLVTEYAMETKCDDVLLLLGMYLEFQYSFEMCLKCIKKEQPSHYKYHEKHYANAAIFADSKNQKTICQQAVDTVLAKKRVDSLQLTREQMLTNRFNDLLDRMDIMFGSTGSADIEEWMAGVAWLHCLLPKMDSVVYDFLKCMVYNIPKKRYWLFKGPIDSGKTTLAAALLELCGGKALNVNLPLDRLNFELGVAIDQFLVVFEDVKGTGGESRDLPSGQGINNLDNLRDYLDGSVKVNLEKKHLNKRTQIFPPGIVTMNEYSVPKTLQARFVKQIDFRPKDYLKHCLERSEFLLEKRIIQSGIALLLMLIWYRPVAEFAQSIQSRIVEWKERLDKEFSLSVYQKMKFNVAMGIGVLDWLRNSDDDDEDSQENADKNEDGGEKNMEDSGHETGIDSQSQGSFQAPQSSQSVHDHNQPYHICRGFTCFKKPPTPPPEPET

Regarding `CC1=C(C(=O)OCc2ccccc2)C(c2ccc(-c3ccccc3C)cc2)NC(=O)N1Cc1ccc(-c2nnn[nH]2)cc1` (stereo not shown) [SMAL], the “Fold change in ATPase activity of T antigen” value is −4.3 fold.

Values taken from paper PMC5050167 (Bioorganic & medicinal chemistry letters, 2016).
